Data on one compound can be found in article PMC9675978 (The Journal of steroid biochemistry and molecular biology, 2022).

Positions count from the first letter of the chain named.

Holding throughout (settings): 3.14 mM S-tetralol, 2.28 mM NAD+, pH 7.0, 37 °C
Test [1] has as its target T1, AKR1C3 E77G (Homo sapiens, UniProt P42330, E77G).
T1 sequence (P42330 1-323 E77G): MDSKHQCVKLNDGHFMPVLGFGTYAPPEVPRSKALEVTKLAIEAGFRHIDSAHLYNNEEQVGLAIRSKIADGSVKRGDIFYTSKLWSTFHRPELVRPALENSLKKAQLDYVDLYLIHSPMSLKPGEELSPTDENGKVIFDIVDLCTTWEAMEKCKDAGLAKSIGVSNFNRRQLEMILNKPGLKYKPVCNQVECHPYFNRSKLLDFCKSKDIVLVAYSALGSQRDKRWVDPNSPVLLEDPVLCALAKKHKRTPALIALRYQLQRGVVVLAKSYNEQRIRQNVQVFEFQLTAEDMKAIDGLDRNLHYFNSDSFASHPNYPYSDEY

Test [2] addresses T2, AKR1C3 WT (Homo sapiens, UniProt P42330).
T2 sequence (P42330 1-323): T1 sequence (P42330 1-323 E77G) with G77E

The target in test [3] is T3, AKR1C3 K104D (Homo sapiens, UniProt P42330, K104D).
T3 sequence (P42330 1-323 K104D): T1 sequence (P42330 1-323 E77G) with G77E, K104D

Test [4] has as its target T4, AKR1C3 H5Q (Homo sapiens, UniProt P42330, H5Q).
T4 sequence (P42330 1-323 H5Q): T1 sequence (P42330 1-323 E77G) with H5Q, G77E

Take `O[C@H]1CCCc2ccccc21` [S-tetralol, (S)-(+)– 1,2,3,4-Tetrahydro-1-naphthol]: the S-tetralol specific activity in test [1] stood at 3.1 ± 0.24 µmol/min/mg; in test [2] it was 3.8 ± 0.35 µmol/min/mg; in test [3] it was 2.4 ± 0.22 µmol/min/mg; in test [4] it was 3.7 ± 0.31 µmol/min/mg.
